From ChEMBL document CHEMBL4334513, “Discovery of a Potent, Selective, and Orally Available MTHFD2 Inhibitor (DS18561882) with in Vivo Antitumor Activity” (J Med Chem, 2019) come the findings set out here.

The assay concerns the target T1, C-1-tetrahydrofolate synthase, cytoplasmic (Homo sapiens, UniProt P11586).
T1 sequence (P11586 whole entry): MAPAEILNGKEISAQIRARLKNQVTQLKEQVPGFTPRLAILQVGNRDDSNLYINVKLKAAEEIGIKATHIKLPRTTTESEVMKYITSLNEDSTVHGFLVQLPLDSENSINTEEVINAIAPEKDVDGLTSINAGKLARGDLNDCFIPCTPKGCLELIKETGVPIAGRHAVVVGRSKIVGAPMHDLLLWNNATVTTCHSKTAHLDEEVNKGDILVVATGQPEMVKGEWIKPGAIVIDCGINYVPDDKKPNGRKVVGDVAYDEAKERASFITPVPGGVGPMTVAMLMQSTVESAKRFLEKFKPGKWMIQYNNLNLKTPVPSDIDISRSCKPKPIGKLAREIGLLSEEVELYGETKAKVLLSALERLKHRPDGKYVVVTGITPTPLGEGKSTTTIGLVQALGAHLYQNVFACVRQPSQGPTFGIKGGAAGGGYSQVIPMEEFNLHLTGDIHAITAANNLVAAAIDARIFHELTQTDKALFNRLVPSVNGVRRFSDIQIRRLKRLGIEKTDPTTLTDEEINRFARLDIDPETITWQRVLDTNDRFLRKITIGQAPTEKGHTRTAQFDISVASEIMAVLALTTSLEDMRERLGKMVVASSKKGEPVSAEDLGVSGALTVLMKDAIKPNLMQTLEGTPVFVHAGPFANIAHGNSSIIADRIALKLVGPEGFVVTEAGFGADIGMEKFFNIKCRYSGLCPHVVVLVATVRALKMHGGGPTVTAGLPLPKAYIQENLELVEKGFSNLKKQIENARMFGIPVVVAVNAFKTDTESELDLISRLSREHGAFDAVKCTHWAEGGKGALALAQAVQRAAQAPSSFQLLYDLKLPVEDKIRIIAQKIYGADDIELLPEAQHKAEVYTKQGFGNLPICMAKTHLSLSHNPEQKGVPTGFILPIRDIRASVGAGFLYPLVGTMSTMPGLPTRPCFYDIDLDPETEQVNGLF

pIC50: −log10 of the molar value.

For `Cc1c(N2CCN(C)[C@H](C)C2)ccc2c3c(c(=O)oc12)CN(C(=O)c1ccc(NS(C)(=O)=O)c(Cl)c1)CC3`, the pIC50 is 4.92.

As usually defined, the pIC50 is the IC50 on a negative log10 scale, so that one unit is a factor of ten.
